# According to PubChem BioAssay AID1452 (National Center for Advancing Translational Sciences (NCATS), 2008):
# Sequences of proteins named here, by UniProt entry; tags and fusion partners are left off.
# UniProt P18054, whole entry: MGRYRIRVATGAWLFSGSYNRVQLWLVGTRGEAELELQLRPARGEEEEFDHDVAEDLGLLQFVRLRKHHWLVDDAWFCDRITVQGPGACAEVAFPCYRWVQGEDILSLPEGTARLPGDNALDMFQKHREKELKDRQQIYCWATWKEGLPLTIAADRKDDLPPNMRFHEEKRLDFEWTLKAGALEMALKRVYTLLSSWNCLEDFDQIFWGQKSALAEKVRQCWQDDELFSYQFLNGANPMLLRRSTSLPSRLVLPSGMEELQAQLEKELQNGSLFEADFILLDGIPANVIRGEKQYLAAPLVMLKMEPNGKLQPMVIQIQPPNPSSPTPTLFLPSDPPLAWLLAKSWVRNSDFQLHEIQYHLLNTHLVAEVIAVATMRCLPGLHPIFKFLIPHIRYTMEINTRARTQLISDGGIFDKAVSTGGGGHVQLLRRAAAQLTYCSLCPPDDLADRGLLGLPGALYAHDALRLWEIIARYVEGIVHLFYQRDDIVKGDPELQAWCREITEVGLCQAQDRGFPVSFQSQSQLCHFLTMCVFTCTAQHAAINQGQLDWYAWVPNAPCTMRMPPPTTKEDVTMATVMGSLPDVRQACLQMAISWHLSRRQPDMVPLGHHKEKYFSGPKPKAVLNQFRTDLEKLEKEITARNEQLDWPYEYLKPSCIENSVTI
# This is a selection; strong and weak results do not stand in their true shares. Calls of active or inactive are those of the source. The call rests on the fitted dose curve; in most records, active means well fitted inhibition curve with a large enough effect; inconclusive means small, poorly fitted or top-dose-only effect; inactive means flat fitted curve, though single readings scatter.
# Biological target: Polyunsaturated fatty acid lipoxygenase ALOX12 (Homo sapiens) (UniProt P18054)
# Test: qHTS Assay for Inhibitors of 12-hLO (12-human lipoxygenase); further: nearly all actives have a fitted effect of over 55% in size
# Conditions: purified 12-hLO, xylenol orange hydroperoxide absorbance; at 57.1 µM (top of the series) unless noted
# Source text: Assay Provider: Holman, T.R., University of California, Santa Cruz Screening Center PI: Austin, C.P. Screening Center: NIH Chemical Genomics Center [NCGC] Human lipoxygenase 12hLO is a member of the closely related lipoxygenase family of enzymes which catalyze the site-specific oxidation of arachidonic acid to various hormone precursor molecules and as such is a candidate for drug development in a variety of disease areas, such as cancer and inflammation. Inhibition of 12hLO activity was screened by utilizing arachidonic acid as a substrate. The extent of hydroperoxide product formation was measured by a secondary chromogenic reaction in which xylenol orange (XO, Sigma-Aldrich, cat. number 39,818-7) reacts with the ferric ions produced from the reaction between the hydroperoxide and ferrous ions. The Fe(III)-XO complex is characterized with red-shifted absorbance at 560 nm. A purified preparation of human 12hLO was supplied by Professor Ted Holman, University of California, Santa Cruz.
# Assay Protocol: Buffer: 25 mM Hepes pH 7.0, 0.01% Triton X-100. Reagents/Controls: Buffer in columns 3 and 4 as negative control (no enzyme). Substrate solution: 40 uM arachidonic acid (Sigma-Aldrich, St. Louis, MO) final concentration dispensed throughout the plate. Enzyme: 150 nM 12hLO final concentration in columns 1, 2, 5-48. Column 1 is neutral (100% activity). Column 2 contained pin-transferred titration of NDGA (nordihidroguaiaretic acid, Sigma-Aldrich, N 5023, top concentration 20 mM in DMSO, then 1:3 dilution in duplicate). (Dilution factor: 23 nL into 4 uL.) Chromogenic detection reagent (divalent iron/xylenol orange, Fe-XO): 200 uM xylenol orange plus 300 uM ferrous ammonium sulfate prepared freshly in 50 mM sulfuric acid. Assay Steps: Three uL of enzyme were dispensed to 1536-well Greiner black clear bottom plates. Compounds and controls (23 nL) were transferred via Kalypsys PinTool. The plates were incubated for 15 min at room temperature, and then 1 uL of substrate solution was added to start the reaction. After room temperature incubation for 30 minutes, 4 uL of Fe-XO solution was added to each well and the plates were incubated for 30 min. The absorbance at 405 and 573 nm were measured using ViewLux (Perkin-Elmer) High-throughput CCD imager and absorbance protocol settings. The 573-to-405 absorbance ratio was used to compute reaction progress.
# On the % scale 0 is the no-effect control and ±100 the full control effect.
row,SMILES,"activity change, negative = inhibition"
1,NC1CCCCC1.NP(=O)(O)N(CCCl)CCCl,inactive: -1.23% [at 11.4 µM]
2,CCOP(=O)(Cl)Cl,inactive: 0.185%
3,O=C(NCC1(N2CCOCC2)CCCCC1)c1cc(=O)[nH]c2ccccc12,inactive: 7.43%
4,CN1CCN(CCOC(=O)C(O)(c2ccccc2)c2ccccc2)CC1,inactive: 2.33%
5,N#CC1(Nc2ccccc2)CCN(CCc2ccccc2)CC1,inactive: -12.8%
6,COc1ccc(NC2CCN(CCc3ccccc3)CC2)c(OC)c1,inactive: -11.5%
7,O=C(OC1CN2CCC1CC2)C1c2ccccc2Oc2ccccc21 (configuration not stated),inactive: 1.04%
8,O=C(NCC1(N2CCOCC2)CCCCC1)c1cc2ccccc2o1,inactive: -10.3%
9,CCC(CO)(C(=O)OC1CN2CCC1CC2)c1ccccc1 (configuration not stated),inactive: -1.9%
10,O=C(O)C1(Nc2ccccc2)CCN(Cc2ccccc2)CC1,inactive: 2.3% [at 11.4 µM]
11,CCOc1ncccc1C(=O)NCC1(N2CCOCC2)CCCCC1,inactive: -0.138%
12,CCN1CCC(Nc2cccc(F)c2)CC1,inactive: -1.72%
13,Fc1ccccc1NC1CCN(Cc2ccccc2)CC1,inactive: -2.89%
14,ClCCOP(OCCCl)OCCCl,inactive: -5.84%
15,c1ccc(CN2CCC(Nc3ccccc3)CC2)cc1,inactive: -1.3%
16,O=C(OC1CN2CCC1CC2)C1c2ccccc2C=Cc2ccccc21 (configuration not stated),inactive: 5.06%
17,N/C(=N\O)c1c(N)no[n+]1[O-],inactive: -3.53%
